Results published in publication PMC6237130, “Disarming the virulence arsenal of Pseudomonas aeruginosa by blocking two-component system signaling” (Chemical Science, 2018).
Read-outs that look alike come from different tables or passages of the source.

Sequences of proteins named here, by UniProt entry; tags and fusion partners are left off.
UniProt Q9WZV7, entry or part of it: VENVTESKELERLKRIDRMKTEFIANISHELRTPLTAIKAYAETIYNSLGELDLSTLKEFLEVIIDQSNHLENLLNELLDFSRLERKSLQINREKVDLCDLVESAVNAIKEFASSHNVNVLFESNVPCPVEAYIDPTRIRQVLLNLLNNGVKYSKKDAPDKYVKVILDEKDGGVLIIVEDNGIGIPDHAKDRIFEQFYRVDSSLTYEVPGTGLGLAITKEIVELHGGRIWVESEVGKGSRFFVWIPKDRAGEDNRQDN

Tests used:
[1] = biological target: HK853 (Thermotoga maritima, UniProt Q9WZV7); assay: Inhibition of HK853 activity (BODIPY-ATPγS competition, HK autophosphorylation); assay type: biochemical
[2] = system: P. aeruginosa PA14; assay: RT-qPCR of virulence and TCS genes in PA14; assay type: cell-based, Pseudomonas aeruginosa; details: PA14, 9 h, 200 and 500 μM
Procedure: RNA isolation, Reverse Transcriptase -qPCR experiments
P. aeruginosa PA14 strain was grown overnight (~16 h) in LB media at 37 °C and 200 RPM.
The overnight culture was diluted 1:100 in fresh LB media. Four mL of this culture was then taken in a 15 mL borosilicate glass tube, to which Rilu-inhibitors in DMSO were added to a final concentration of 200 µM or 500 µM (for the control experiments, same amount of DMSO was added). These cultures were then grown for 9 h (late exponential phase) at 37 °C and 200 RPM, OD620 ~0.7. Total RNA was extracted from ~2 mL cell pellet using an RNAEasy Mini kit (Qiagen), according to the manufacturer’s instructions, including exogenous DNase treatment with Ambion Turbo-DNAse Kits. RNA integrity was confirmed by native gel electrophoresis and the quantities were measured using a nanophotometer. cDNA was generated using the DNA-free total RNA using (Applied Biosystems High Capacity cDNA Reverse Transcription Kits) random-primed reverse transcriptase reaction following the manufacturer’s protocol. The cDNA was used as template for quantitative PCR (BioRad MyiQ2 dual-color system) using the SYBR Green detection system (BioRad) on white 96-well PCR plates. […]
expression = 2(CT standard −C T sample), where CT (cycle time) was determined automatically by the Real Time iQ5 PCR software (BioRad). […]

Compound: Nc1nc2cc3sc(N)nc3cc2s1 [Rilu-12]
- IC50 ([1]; Fig. 1b and text, HK autophosphorylation, read-out: IC50 values for HK853 inhibitory activity): 1.6 µM
- IC50 ([1]; IC50 values (µM) (95% confidence interval), n = 2, Table S1, HK853 inhibition): 1.56 µM
- gacA expression, downregulation / fold change [2]: 12–15 fold
